Tested on: E. dermatitidis
Test: Antimicrobial susceptibility testing (CLSI M27-A3/M38-A2, chequerboard), MIC100, Example 2
Assay type: cell-based

MIC (Exophiala dermatitidis, antifungal alone): > 256 µg/mL
MIC100 of the antifungal in combination with Novamycin (+) (in combination with MIC100 and sub-MIC100 concentrations of Novamycin): >256 µg/mL
SMILES: OC(Cn1cncn1)(Cn1cncn1)c1ccc(F)cc1F [FCZ, fluconazole]

From patent publication US20170348381A1, “FORMULATION” (NovaBiotics Limited, priority 2016, published 2017)
